Literature values, collected in paper PMC2997321 (British Journal of Clinical Pharmacology, 2010).

Conditions: rapidly metabolized by enzymes such as DPP-IV; ref [5], [15]

## glucagon-like peptide-1 [Native GLP-1]
  half-life (t1/2): < 2 min
